Measurements taken from publication PMC10355216, “The C-terminal tail of CSNAP attenuates the CSN complex” (Life Science Alliance, 2023).

Test system: CSN^ΔCSNAP complex
Assay: Peptide array screen of C-CSNAP peptides with rCSN^ΔCSNAP;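 note: Array-printed peptides incubated with 0.5 µM CSN^ΔCSNAP, bound complex detected by anti-CSN3 antibody plus HRP-linked secondary, spot intensity expressed relative to the parent reference peptide spot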
Type: binding
Settings: average of 5 experiments
Description: The same array was also reacted with the CSN^ΔCSNAP complex (Fig S3A–D and Table S2). […] Taken together, the peptide array analysis not only provided insight into the optimal C-CSNAP peptide characteristics but also validated and supported the predicted model.
Figure S3. Peptide array screen of modified C-CSNAP peptides. C-CSNAP peptide and its derivatives were printed on a microarray. The array was blocked and incubated with or without the CSN∆CSNAP complex and probed using an anti-CSN3 antibody and HRP-conjugated secondary antibody. To assess non-specific binding of the antibodies to the array, anti-CSN3 and anti-GAR-HRP were used without the addition of the COP9 signalosome complex (CSN). Signal intensity of each spot was measured and normalized to the intensity of the spot of C-CSNAP (A1). Measured values for each spot were averaged from six arrays and plotted with standard errors SEM. […] In (C), results for spot B22 was disregarded because of non-specific CSN binding to this spot. (A) A representative image of the peptide array (left) and the background (right). […]
Supplementary file : Table S2 Peptide array densitometry data using rCSN^ΔCSNAP. […] Intensity values are normalized to the intensity of the 16AA C-CSNAP peptide (A1) on each array from three independent experiments in duplicates, and averages from the six replicates are calculated with SEM. […]

Row | Substance | Average fold change (intensities as fold of C-CSNAP (A1)) (peptide array, rCSN^ΔCSNAP, left and right spots) [fold] | Average fold change (peptide array with rCSN^ΔCSNAP, left and right (n = 10), fold of C-CSNAP (A1)) [fold]
1 | LL-Aib-LL-Aib-LL-Aib-GGG-DFFNDFEDLFDDDDIQ [Position H14, C-CSNAP with N-terminal 3x(LL-Aib)-GGG] | 1.3512 | –
2 | PAVDEMFPEGAGPYVDLDEAGGSTGLLMDLAANEKAVHADFFNDFEDLFDDDDIQ [Position B16, CSNAP residues 3-57] | – | 1.3540
